By IC50 is commonly meant the concentration that inhibits the measured activity by half. The term EC50 denotes the concentration at which the effect is half-maximal. As a reminder, the Ki is the equilibrium dissociation constant of an inhibitor or competing ligand from its target.

This note sets out measurements from ChEMBL document CHEMBL4334548, “Discovery of Isoxazole Amides as Potent and Selective SMYD3 Inhibitors” (ACS Med Chem Lett, 2020).

Where only a bound is given, the exact number is not on record here.

Test [1] addresses T1, Histone-lysine N-methyltransferase SMYD3 (Homo sapiens, UniProt Q9H7B4).
T1 sequence (Q9H7B4 whole entry): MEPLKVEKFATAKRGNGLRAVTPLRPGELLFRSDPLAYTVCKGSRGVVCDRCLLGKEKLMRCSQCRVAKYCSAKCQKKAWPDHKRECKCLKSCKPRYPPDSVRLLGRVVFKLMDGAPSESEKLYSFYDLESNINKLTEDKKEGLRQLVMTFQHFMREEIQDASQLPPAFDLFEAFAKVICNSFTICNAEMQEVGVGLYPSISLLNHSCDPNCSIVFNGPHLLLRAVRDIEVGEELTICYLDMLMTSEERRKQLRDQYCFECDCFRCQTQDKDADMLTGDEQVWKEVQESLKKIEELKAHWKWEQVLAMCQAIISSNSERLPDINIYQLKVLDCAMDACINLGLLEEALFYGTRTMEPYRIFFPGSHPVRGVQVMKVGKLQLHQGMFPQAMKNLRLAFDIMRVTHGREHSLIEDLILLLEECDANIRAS
The test can be described thus: Inhibition of recombinant N-terminal FLAG/His-tagged SMYD3 (unknown origin) expressed in baculovirus infected insect cells using 3H-SAM as substrate assessed as 3H-MEKK2 methylation incubated for 40 mins by scintillation proximity assay.

The target of test [2] is T1, Histone-lysine N-methyltransferase SMYD3. The test can be described thus: Inhibition of recombinant SMYD3 (unknown origin) transfected in human HEK293 cells assessed as reduction in MEKK2 methylation incubated for 24 hrs by cellular mechanistic assay. Format: cell-based.
For test [3] the target is unchanged. The test can be described thus: Uncompetitive inhibition of SMYD3 (unknown origin) assessed as inhibitory constant incubated for 60 mins by Cheng-Prusoff equation analysis.
The target is the same in test [4]. As to the kind of experiment: Uncompetitive inhibition of SMYD3 (unknown origin) assessed as inhibitory constant incubated for 60 mins by Lineweaver-Burk plot analysis.
Test [5] has the same target. As to the kind of experiment: Inhibition of SMYD3 (unknown origin) assessed as reduction in histone H4 methylation.

Take `CCCN[C@H]1CC[C@H](CS(=O)(=O)N2CCC(NC(=O)c3cc(C4CC4)on3)CC2)CC1`: in test [1], the 50% inhibitory concentration (IC50) was determined as 32 nM. The EC50 in test [2] was found to be 177 nM.
`O=C(NC1CCN(S(=O)(=O)C[C@H]2CC[C@H](NCCC(F)(F)F)CC2)CC1)c1cc(C2CC2)on1`: the IC50 in test [1] is under 1 nM. Moreover, the EC50 in test [2] came to 72 nM.
For `NCCCCS(=O)(=O)N1CCC(NC(=O)c2cc(C3CC3)on2)CC1`, the IC50 in test [1] came out at 25 nM. Moreover, the EC50 in test [2] was determined as 494 nM.
Take `CC(C)(C)CCN[C@H]1CC[C@H](CS(=O)(=O)N2CCC(NC(=O)c3cc(C4CC4)on3)CC2)CC1`: the half-inhibitory concentration (IC50) in test [1] turned out to be 20 nM. Also, the EC50 in test [2] stood at 128 nM.
For the compound `O=C(NC1CCN(S(=O)(=O)C[C@H]2CC[C@H](NCc3ccccc3)CC2)CC1)c1cc(C2CC2)on1`, the IC50 in test [1] was under 1 nM. Also, the EC50 in test [2] worked out at 22 nM.
With `O=C(NC1CCN(S(=O)(=O)C[C@H]2CC[C@H](NCc3cncc(F)c3)CC2)CC1)c1cc(C2CC2)on1`, in test [1], the IC50 was under 1 nM. Moreover, the EC50 in test [2] is 27 nM.
Taken in the same sequence, the figures for `O=C(NC1CCN(S(=O)(=O)c2ccc(CN3CCC3)cc2)CC1)c1cc(C2CC2)on1` were 20 nM and 179 nM.
`N[C@H]1CC[C@H](S(=O)(=O)N2CCC(NC(=O)c3cc(C4CC4)on3)CC2)CC1`: in test [1], the IC50 turned out to be 1.6 nM. Further, the EC50 in test [2] amounted to 71 nM.
For the compound `O=C(NC1CCN(S(=O)(=O)C[C@H]2CC[C@H](NCc3cccc(F)c3)CC2)CC1)c1cc(C2CC2)on1`, in test [1], the IC50 is under 1 nM. Also, the EC50 in test [2] was found to be 38 nM.
As to `CN(C)[C@H]1CC[C@H](CS(=O)(=O)N2CCC(NC(=O)c3cc(C4CC4)on3)CC2)CC1`, the IC50 in test [1] is under 1 nM. Besides, the EC50 in test [2] worked out at 199 nM.
For `NC[C@H]1CC[C@H](S(=O)(=O)N2CCC(NC(=O)c3cc(C4CC4)on3)CC2)CC1`, the IC50 in test [1] amounted to 25 nM. Moreover, in test [2], the EC50 is 237 nM.
For `CN(C)Cc1ccc(S(=O)(=O)N2CCC(NC(=O)c3cc(C4CC4)on3)CC2)cc1`, the IC50 in test [1] was determined as 79 nM. Moreover, the EC50 in test [2] was determined as 597 nM.
Turning to `CN1CCC(S(=O)(=O)N2CCC(NC(=O)c3cc(C4CC4)on3)CC2)CC1`, the concentration for half-maximal inhibition (IC50) in test [1] came out at 50 nM. Also, in test [2], the EC50 was 300 nM.
`CN[C@H]1CC[C@H](CS(=O)(=O)N2CCC(NC(=O)c3cc(C4CC4)on3)CC2)CC1`: the half-inhibitory concentration (IC50) in test [1] stood at 5 nM. Also, the EC50 in test [2] turned out to be 180 nM.
For `CCS(=O)(=O)N1CCC(NC(=O)c2cc(C3CC3)on2)CC1`, the IC50 in test [1] turned out to be 7940 nM.
For `O=C(NC1CCN(S(=O)(=O)C[C@H]2CC[C@H](NCc3ccccn3)CC2)CC1)c1cc(C2CC2)on1`, the IC50 in test [1] came to 25 nM. Besides, the EC50 in test [2] was 71 nM.
For `O=C(NC1CCN(S(=O)(=O)C2CCNC2)CC1)c1cc(C2CC2)on1` (configuration not stated), in that order: 40 nM and 611 nM.
Regarding `O=C(NC1CCN(S(=O)(=O)[C@H]2CC[C@H](NCCCC(F)(F)F)CC2)CC1)c1cc(C2CC2)on1`, the IC50 in test [1] came to 6.3 nM. In test [2], the EC50 was 44 nM. In addition, the Ki in test [3] and in test [4] was 18 nM each time.
Regarding `O=C(NC1CCN(S(=O)(=O)C[C@H]2CC[C@H](NCc3ccccc3Cl)CC2)CC1)c1cc(C2CC2)on1`, the IC50 in test [1] stood at 32 nM. Moreover, the 50% effective concentration (EC50) in test [2] was 31 nM.
As for `CC(C)(C)CN[C@H]1CC[C@H](CS(=O)(=O)N2CCC(NC(=O)c3cc(C4CC4)on3)CC2)CC1`, the IC50 in test [1] came to 40 nM. Besides, the EC50 in test [2] came out at 173 nM.
With `O=C(NC1CCN(S(=O)(=O)C[C@H]2CC[C@H](NCc3ccncc3)CC2)CC1)c1cc(C2CC2)on1`, in test [1], the IC50 was 158 nM.
As for `O=C(NC1CCN(S(=O)(=O)C[C@H]2CC[C@H](NCc3cccnc3)CC2)CC1)c1cc(C2CC2)on1`, the IC50 in test [1] was determined as 40 nM. Moreover, the EC50 in test [2] turned out to be 55 nM.
On to `CCN1CCC(S(=O)(=O)N2CCC(NC(=O)c3cc(C4CC4)on3)CC2)CC1`, for which the IC50 in test [1] was found to be 100 nM. The EC50 in test [2] was 617 nM.
In the case of `Cc1cccc(CN[C@H]2CC[C@H](CS(=O)(=O)N3CCC(NC(=O)c4cc(C5CC5)on4)CC3)CC2)c1`, the IC50 in test [1] came out at 10 nM. Besides, the EC50 in test [2] is 53 nM.
Take `Cc1ccccc1CN[C@H]1CC[C@H](CS(=O)(=O)N2CCC(NC(=O)c3cc(C4CC4)on3)CC2)CC1`: the IC50 in test [1] was under 1 nM. For the same compound, in test [2], the EC50 was 38 nM.
For `CCN[C@H]1CC[C@H](CS(=O)(=O)N2CCC(NC(=O)c3cc(C4CC4)on3)CC2)CC1`, the concentration for half-maximal inhibition (IC50) in test [1] came out at 32 nM. Besides, the EC50 in test [2] worked out at 205 nM.
With `CC(C)CN[C@H]1CC[C@H](CS(=O)(=O)N2CCC(NC(=O)c3cc(C4CC4)on3)CC2)CC1`, the IC50 in test [1] came to 16 nM. In test [2], the EC50 stood at 156 nM.
Turning to `O=C(NC1CCN(S(=O)(=O)C[C@H]2CC[C@H](NCc3ccc(Cl)cc3)CC2)CC1)c1cc(C2CC2)on1`, in test [1], the half-maximal inhibitory concentration (IC50) is under 1 nM. Further, in test [2], the EC50 turned out to be 11 nM.
`N[C@H]1CC[C@H](CS(=O)(=O)N2CCC(NC(=O)c3cc(C4CC4)on3)CC2)CC1`: the IC50 in test [1] is 2.5 nM. For the same compound, the EC50 in test [2] was in the range of 73 to 74 nM.
Regarding `O=C(NC1CCN(S(=O)(=O)C2CCNCC2)CC1)c1cc(C2CC2)on1`, the values for the IC50 in test [1] and in test [5] were 32 nM and 167 nM, respectively. Also, in test [2], the EC50 came to 183 nM. Besides, the Ki in test [3] came to 17 nM.
Consider `N[C@H]1CC[C@@H](S(=O)(=O)N2CCC(NC(=O)c3cc(C4CC4)on3)CC2)CC1`, for which the IC50 in test [1] came out at 10 nM. In test [2], the EC50 came out at 160 nM.
In the case of `O=C(NC1CCN(S(=O)(=O)CCCN2CCCC2)CC1)c1cc(C2CC2)on1`, the IC50 in test [1] came out at 126 nM. Moreover, in test [2], the EC50 was 1520 nM.
For the compound `Cc1ccc(CN[C@H]2CC[C@H](CS(=O)(=O)N3CCC(NC(=O)c4cc(C5CC5)on4)CC3)CC2)cc1`, the 50% inhibitory concentration (IC50) in test [1] is 20 nM. In addition, the EC50 in test [2] turned out to be 54 nM.
With `O=C(NC1CCN(S(=O)(=O)c2ccc(CN3CCCCC3)cc2)CC1)c1cc(C2CC2)on1`, the IC50 in test [1] was found to be 100 nM. Moreover, in test [2], the EC50 came to 919 nM.
In the case of `CCN(CCCC(F)(F)F)[C@H]1CC[C@H](CS(=O)(=O)N2CCC(NC(=O)c3cc(C4CC4)on3)CC2)CC1`, in test [1], the IC50 was found to be 20 nM. Further, the EC50 in test [2] was 758 nM.
For the compound `CN(CCCC(F)(F)F)[C@H]1CC[C@H](CS(=O)(=O)N2CCC(NC(=O)c3cc(C4CC4)on3)CC2)CC1`, in test [1], the IC50 was under 1 nM. Further, the EC50 in test [2] worked out at 261 nM.
For `O=C(NC1CCN(S(=O)(=O)C[C@H]2CC[C@H](NCc3ccc(Cl)cn3)CC2)CC1)c1cc(C2CC2)on1`, the half-inhibitory concentration (IC50) in test [1] is under 1 nM. The EC50 in test [2] came to 26 nM.
In the case of `O=C(NC1CCN(S(=O)(=O)C[C@H]2CC[C@H](NCc3cc(F)ccn3)CC2)CC1)c1cc(C2CC2)on1`, in test [1], the IC50 amounted to 10 nM. Also, the EC50 in test [2] was 58 nM.
Take `O=C(NC1CCN(S(=O)(=O)C[C@H]2CC[C@H](NCc3ccccc3F)CC2)CC1)c1cc(C2CC2)on1`: the IC50 in test [1] turned out to be 2.5 nM. The EC50 in test [2] came to 22 nM.
For `O=C(NC1CCN(S(=O)(=O)C[C@H]2CC[C@H](NCc3ccc(F)cn3)CC2)CC1)c1cc(C2CC2)on1`, in that order: under 1 nM and 42 nM.
Consider `O=C(NC1CCN(S(=O)(=O)c2ccc(CN3CCCC3)cc2)CC1)c1cc(C2CC2)on1`, for which the IC50 in test [1] came out at 16 nM. Besides, the EC50 in test [2] amounted to 373 nM.
For `O=C(NC1CCN(S(=O)(=O)C[C@H]2CC[C@H](NCc3ccc(F)cc3)CC2)CC1)c1cc(C2CC2)on1`, the IC50 in test [1] is 1.3 nM. Moreover, the EC50 in test [2] is 19 nM.
`O=C(NC1CCN(S(=O)(=O)C[C@H]2CC[C@H](NCc3cccc(Cl)c3)CC2)CC1)c1cc(C2CC2)on1`: the IC50 in test [1] was 8 nM. The EC50 in test [2] was found to be 29 nM.
For `CCCCN[C@H]1CC[C@H](CS(=O)(=O)N2CCC(NC(=O)c3cc(C4CC4)on3)CC2)CC1`, in that order: 32 nM and 95 nM.
On to `Cc1ccc(CN[C@H]2CC[C@H](CS(=O)(=O)N3CCC(NC(=O)c4cc(C5CC5)on4)CC3)CC2)nc1`, for which the IC50 in test [1] is 5 nM. The EC50 in test [2] came out at 48 nM.
